Screening results (PubChem BioAssay)
uPA generation – blocks generation of uPA at the cell surface. Potency, µM (top dose mostly 38.3 µM), most hits filed as inhibitors. cell surface uPA generation assay, qHTS. AID 540303. 330,000 compounds, 0.31% hits; active = well fitted inhibition curve with a large enough effect; inconclusive = small, poorly fitted or top-dose-only effect; inactive = no such curve, though single readings can be large or run the other way; tested in mouse RAW 264.7 cells; note: nearly all actives have a fitted effect of over 55% in size
TDP1 block – inhibitors of human tyrosyl-DNA phosphodiesterase TDP1 | Q9NUW8 | recombinant TDP1, AlphaScreen DNA substrate cleavage | Potency, µM (highest dose often 130 µM), usual class: inhibitors | 350,000 compounds, 0.28% hits | AID 485290; note: nearly all actives have a fitted effect of over 40% in size
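AlphaScreen read-out: signal falls as enzyme removes the 3' tyrosine-FITC from a 5'-biotinylated DNA oligo (15 nM, 5 min, RT). Enzyme was E. coli-made recombinant Tdp1 at 1 nM, exposed to compound for 15 min beforehand; beads 10 ug/ml, 10 min.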
DT40 TDP1 no CPT – qHTS for Inhibitors of human tyrosyl-DNA phosphodiesterase 1 (TDP1): qHTS in cells in absence of CPT. DT40 Tdp1-/- hTDP1 cells, no CPT, ATP luminescence, 48 h. Potency, µM (doses to about 46.2 µM), usual class: inhibitors. 420,000 compounds, 15% hits. AID 686978, 2013; note: nearly all actives have a fitted effect of over 55% in size
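No-CPT arm: Tdp1-/-;hTDP1 DT40 cells (400/well) plus compounds, incubated ≥48 hr at 37 °C. Readout CellTiter-Glo luminescence.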
DT40 TDP1 CPT – growth inhibition of DT40 Tdp1-/-;hTDP1 cells with camptothecin (screen for TDP1 inhibitors). chicken DT40 Tdp1-/-;hTDP1 cells + 20 nM CPT, ATP luminescence, 48 h. 420,000 compounds, 12% hits. Potency, µM (doses to about 46.2 µM), usual class: inhibitors. AID 686979; note: nearly all actives have a fitted effect of over 55% in size
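Cell growth measured by CellTiter-Glo luminescence after a minimum 48 h, 37 C compound exposure with 20 nM CPT in Tdp1-knockout DT40 cells stably expressing hTDP1, seeded 400/well; qHTS titration format.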
miR-21 reporter – miR-21 reporter, rising signal. HeLa miR-21 FLuc reporter, luciferase, 48 h. Potency, µM (highest dose often 38.3 µM). 340,000 tested, under 10 active. AID 2288; active = well fitted rising curve with a large enough effect; inconclusive = small, poorly fitted or top-dose-only effect; inactive = no such curve, though single readings can be large or run the other way;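 further: miR-21 action dims this reporter so a rising signal means less miR-21 action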
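Luminescence from a firefly luciferase reporter carrying a miR-21 binding site downstream, stably expressed under a CMV promoter in HeLa cells that make miR-21 endogenously, reports miRNA modulation after 48 h compound exposure up to approximately 40uM final.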
Of the large screens only hits and unclear results are named; the others gave an inactive call. Hits are enriched below; roughly 16% of the tested compounds scored in any of these assays. Unless noted, calls come from the whole dose curve; as a rule, active = well fitted curve in the direction sought with a large enough effect; inconclusive = small, poorly fitted or top-dose-only effect, or another doubt; inactive = no such curve, though single readings can be large; an effect the other way counts as inactive or inconclusive.

C[C@H](CO)N1C[C@H](C)[C@@H](CN(C)S(=O)(=O)c2ccccc2)Oc2c(NC(=O)NC3CCCCC3)cccc2C1=O	DT40 TDP1 no CPT inconclusive, DT40 TDP1 CPT 18µM (no result: miR-21 reporter)
C[C@H](CO)N1C[C@H](C)[C@@H](CN(C)S(=O)(=O)c2ccccc2)Oc2c(NC(=O)Nc3ccc4c(c3)OCO4)cccc2C1=O	DT40 TDP1 no CPT inconclusive, DT40 TDP1 CPT 16µM (no result: miR-21 reporter)
C[C@H](CO)N1C[C@H](C)[C@@H](CN(C)S(C)(=O)=O)Oc2c(NC(=O)Nc3ccc4c(c3)OCO4)cccc2C1=O	none (no result: miR-21 reporter)
C[C@H](CO)N1C[C@H](C)[C@@H](CN(C)S(=O)(=O)c2ccccc2)Oc2c(NC(=O)C3CC3)cccc2C1=O	none (no result: TDP1 block, miR-21 reporter)
Cc1cc(=O)[nH]c(SCC(=O)NCCOc2ccccc2)n1	none
O=S1(=O)NC(CC2=CCCCC2)C2CCCCC2O1 (centres undefined)	DT40 TDP1 CPT 7.3µM (no result: TDP1 block)
O=C(CC12CC3CC(CC(C3)C1)C2)Nc1ccc(C(=O)O)cc1	none
O=C(CSc1nnc(-c2cccnc2)n1-c1ccc(SC(F)F)cc1)N1CCCc2ccccc21	DT40 TDP1 no CPT inconclusive, DT40 TDP1 CPT inconclusive
O=S(=O)(Nc1cccc2ccccc12)c1ccc2ccccc2c1	none (no result: uPA generation, DT40 TDP1 no CPT, DT40 TDP1 CPT, miR-21 reporter)
Cc1ccc(NC(=O)C(=O)NCCc2c[nH]c3ccccc23)cc1C	none
Cc1ccc(NC(=O)N(Cc2c[nH]c3ccccc23)C2CCCCCC2)cc1C	DT40 TDP1 no CPT 8.2µM, DT40 TDP1 CPT 7.3µM (no result: uPA generation)
COc1ccc2cc(CN(C(=O)Nc3ccccc3)C3CCCC3)c(=O)[nH]c2c1	DT40 TDP1 CPT inconclusive
COc1cccc(NC(=O)N(Cc2c[nH]c3ccccc23)C2CCCCC2)c1	DT40 TDP1 no CPT 18µM, DT40 TDP1 CPT 8.2µM (no result: uPA generation)
CC(=O)Nc1ccc(S(=O)(=O)NC(CC(=O)NCCC2=CCCCC2)C(C)C)cc1 (centres undefined)	none
CN(CC(=O)Nc1ccccc1Cl)CC(=O)N1CCc2ccccc21	DT40 TDP1 no CPT inconclusive, DT40 TDP1 CPT inconclusive (no result: miR-21 reporter)
Cc1cc(=O)oc2cc(NC(=O)Cc3ccccc3)ccc12	none
O=C1c2ccccc2[C@@H]2CC(O)C(O)CCN12 (some centres undefined)	none (no result: TDP1 block, miR-21 reporter)
CC1(C)Cc2ccccc2C2CC(O)C(=O)N21 (centres undefined)	DT40 TDP1 no CPT inconclusive, DT40 TDP1 CPT 15µM
Cc1sc(=NC(=O)c2ccco2)n(C)c1-c1ccc(F)cc1	DT40 TDP1 no CPT 16µM, DT40 TDP1 CPT inconclusive
CC(C)n1c(/C=C\[C@@H](O)C[C@@H](O)CC(=O)O)c(-c2ccc(F)cc2)c2ccccc21	none (no result: uPA generation, DT40 TDP1 no CPT, DT40 TDP1 CPT, miR-21 reporter)
O=C(O)C[C@H](O)C[C@H](O)/C=C/c1c(C2CC2)nc2ccccc2c1-c1ccc(F)cc1	DT40 TDP1 no CPT 1.9µM, DT40 TDP1 CPT 2.7µM (no result: uPA generation, TDP1 block, miR-21 reporter)
Cn1cc(C(=O)N/N=C/C2=C(N3CCOCC3)C(=C/c3ccc([N+](=O)[O-])cc3)/CC2)ccc1=O	DT40 TDP1 CPT inconclusive (no result: TDP1 block, miR-21 reporter)
O=CC1=C(N2CCOCC2)/C(=C/c2ccc(Cl)cc2)CC1	DT40 TDP1 no CPT 21µM, DT40 TDP1 CPT inconclusive
Cc1occc1C(=O)N/N=C/C1=C(N2CCOCC2)C(=C\c2ccc(Cl)cc2Cl)/CC1	DT40 TDP1 no CPT 7.3µM, DT40 TDP1 CPT inconclusive
Cc1cc(C)nc(NN=CC2=C(N3CCOCC3)/C(=C/c3ccc(Cl)cc3)CC2)n1	DT40 TDP1 no CPT 8.2µM, DT40 TDP1 CPT 12µM (no result: TDP1 block, miR-21 reporter)
C/C(=N/NC(=O)c1ccoc1C)c1ccc(N2CCOCC2)cc1	none
O=C(O)c1ccc(N/N=C/C2=C(N3CCOCC3)C(=C\c3ccccc3)/CC2)cc1	DT40 TDP1 no CPT 21µM, DT40 TDP1 CPT inconclusive (no result: TDP1 block)
COc1ccc(CCNC(=O)Cn2cc(S(=O)(=O)Cc3ccccc3Cl)c3ccccc32)cc1OC	DT40 TDP1 no CPT inconclusive, DT40 TDP1 CPT inconclusive (no result: uPA generation)
COc1ccc(CCNC(=O)C2CC(=O)N(c3ccc(C)cc3)C2)cc1 (centres undefined)	none
COc1ccc2oc(=O)c(C(=O)N3CCN(C(=O)c4ccco4)CC3)cc2c1	none (no result: uPA generation)
O=C(COC(=O)c1ccc[nH]c1=O)NCC12CC3CC(CC(C3)C1)C2	none (no result: miR-21 reporter)
Cc1cc(C)nc(N/N=C/c2ccc(N3CCOCC3)cc2)n1	DT40 TDP1 CPT inconclusive
